# Assay type: physicochemical
# Conditions: in the presence of VSP; no degradation after incubation at pH 2
# Experimental: IL-2 alone or mixed with VSP carrier was incubated at different pHs or with different concentration of proteolytic enzymes such as trypsin. The presence of IL-2 after the pH and proteolyitc enzyme challenges was detected using Coomassie stain of SDS-PAGE gels.
# For example, none of the two interleukins tested digested by trypsin, even at 1:10 ratios, or degrade after incubation at pH 2. This is consistent with the observation that VSP carriers can protect other bioactive peptides, such as LANTUS™ insulin. Accordingly, the combination of VSPs with interleukins, e.g., IL-2 or IL-10, could facilitate their intestinal absorption and their systemic effects.
substance,measurement,value
"IL-2: human interleukin-2, a cytokine",resistance to low pH,resistant
